# Source: patent publication US6541195B2, “Correction of genetic defects using chemical chaperones” (The Regents of the University of California, priority 1996, dated 2003)
# Sequences of proteins named here, by UniProt entry; tags and fusion partners are left off.
# UniProt P02340, whole entry A135V: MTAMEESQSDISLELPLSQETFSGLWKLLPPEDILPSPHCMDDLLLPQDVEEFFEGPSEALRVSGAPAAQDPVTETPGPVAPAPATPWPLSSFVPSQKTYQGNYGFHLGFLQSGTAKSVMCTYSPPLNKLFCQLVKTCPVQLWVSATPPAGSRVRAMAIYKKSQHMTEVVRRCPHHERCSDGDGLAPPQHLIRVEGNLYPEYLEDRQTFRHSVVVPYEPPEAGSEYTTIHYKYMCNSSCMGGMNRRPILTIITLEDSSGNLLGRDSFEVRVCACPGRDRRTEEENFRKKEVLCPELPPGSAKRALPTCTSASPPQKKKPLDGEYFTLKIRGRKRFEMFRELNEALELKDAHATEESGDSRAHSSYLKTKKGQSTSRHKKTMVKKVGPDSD
# Columns and labels:
# [1] = target: temperature sensitive (ts) mutant p53 protein (Mus musculus, UniProt P02340, A135V); assay: Intracellular localization of temperature sensitive p53 in A1-5 cells by indirect immunofluorescence; details: 39.5° C., 2 D; D2O 100%, TMAO 75 mM, glycerol 0.6 M
# [2] = system: temperature sensitive form of pp60^src; assay type: cell-based, Rous sarcoma virus; details: 39.5° C.
# [3] = system: temperature sensitive mutant of the E1 enzyme (ts20 cells); details: 1 day 39.5° C., then agent one day at 39.5° C.; 75 mM TMAO, 0.75 M glycerol
SMILES,intracellular distribution of p53 [1],restoration of transformed phenotype / wild type pp60^src activity [2],nuclear p53 staining when agent is added to cells already at the nonpermissive temperature [3]
"C[N+](C)(C)[O-] [TMAO, trimethylamine N-oxide]",nuclear locale of p53,,
[2H]O[2H] [deuterated water],nuclear locale of p53,,
OCC(O)CO [glycerol],nuclear locale of p53,morphology very similar to the control cells maintained at 32.5 °C,p53 staining no longer was observed
